For experiment [1], the target named is wild-type hSSTR3 stably expressed in HEK293 cells (human) (UniProt P32745).
For experiment [2], the target named is wild-type hSSTR5 stably expressed in HEK293 cells (human) (UniProt P35346).
For experiment [3], the target named is wild-type hSSTR2 stably expressed in HEK293 cells (human) (UniProt P30874).

The chains behind the UniProt entries cited, without tags or fusion partners. Where a name states a change or a piece, a line headed by the entry shows the natural chain unless it says otherwise.
UniProt P61278: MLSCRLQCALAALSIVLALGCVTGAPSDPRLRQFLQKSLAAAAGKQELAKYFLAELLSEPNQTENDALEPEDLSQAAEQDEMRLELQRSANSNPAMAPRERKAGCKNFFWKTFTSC

One substance from patent publication US20250057913A1, “USE OF SOMATOSTATIN AGONIST IN THE TREATMENT OF SSTR3 EXPRESSING TUMORS” (ITALFARMACO SPA, priority 2021, published 2025) can be followed below.

On to SST14 (from UniProt P61278) (ligand), for which the Compound activity (EC50 nM), GIRK membrane potential assay in experiment [1] was 0.8 nM; in experiment [2], 0.5 nM; in experiment [3], 0.4 nM.
